PubChem BioAssay AID624038 (The Scripps Research Institute Molecular Screening Center, 2012)
This is a selection; strong and weak results do not stand in their true shares. Active and inactive are the calls of the source.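 Rule for the calls: active = activation above the run cutoff, the mean activation of all test compounds plus 3 SD (cut at about 18% in these data); inactive = the rest.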

The chains behind the UniProt entries cited, without tags or fusion partners.
UniProt P08912, whole entry, looked up: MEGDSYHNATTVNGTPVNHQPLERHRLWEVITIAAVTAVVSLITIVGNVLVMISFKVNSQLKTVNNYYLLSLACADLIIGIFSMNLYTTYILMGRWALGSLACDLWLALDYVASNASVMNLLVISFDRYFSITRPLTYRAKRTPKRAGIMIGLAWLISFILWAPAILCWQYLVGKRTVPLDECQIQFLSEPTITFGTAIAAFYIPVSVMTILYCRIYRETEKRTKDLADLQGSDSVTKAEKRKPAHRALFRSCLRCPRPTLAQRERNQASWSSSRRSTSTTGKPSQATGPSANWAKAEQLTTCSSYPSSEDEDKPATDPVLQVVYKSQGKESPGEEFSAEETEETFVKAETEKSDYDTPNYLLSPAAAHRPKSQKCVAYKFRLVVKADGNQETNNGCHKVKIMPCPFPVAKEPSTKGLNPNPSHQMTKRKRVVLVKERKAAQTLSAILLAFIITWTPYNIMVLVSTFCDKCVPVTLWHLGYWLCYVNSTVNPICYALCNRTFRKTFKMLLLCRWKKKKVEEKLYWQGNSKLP

The molecules below were run against Muscarinic acetylcholine receptor M5 (Homo sapiens) (UniProt P08912) (assay: CHRM5 PAMs potentiating acetylcholine calcium signal – CHO-K1 cells, Fluo-8 calcium fluorescence, primary screen (AID 624038)). Conditions: CHO-K1 hM5, Fluo-8 calcium, ACh EC20 PAM; at 3 µM; stronger effect = higher value; 0% = ACh EC20, 100% = ACh EC100.

Row | SMILES | activation
1 | Cc1cc(=O)[nH]c(N[N+](=O)[O-])n1 | inactive: -6.67%
2 | CCN(CC)C(=S)SC(NC=O)C(Cl)(Cl)Cl (stereo not given) | inactive: -7.18%
3 | O=C(OC1CN2CCC1CC2)c1cccc2[nH]cnc12 (stereo not given) | inactive: 13.6%
4 | CC(C)NC(=O)NP(=O)(Oc1ccccc1)Oc1ccccc1 | inactive: 5.75%
5 | O=[N+]([O-])c1cc([N+](=O)[O-])c(-c2ccn[nH]2)s1 | inactive: -3.72%
6 | ClCCSc1nnc(-c2cccnc2)o1 | inactive: -0.64%
7 | CC(C)c1ccc(OP(=O)(Nc2ccccn2)Oc2ccccc2F)cc1 (stereo not given) | inactive: -1.06%
8 | COC(=O)C1(C)COP(=O)(N2CCCCCC2)OC1 (stereo not given) | inactive: -3.04%
9 | Cc1ccc(OP(=O)(Nc2ccc([N+](=O)[O-])cn2)Oc2ccc(C)cc2)cc1 | inactive: 1.4%
10 | [N-]=[N+]=NC1CCCCC1NC(=O)c1cc([N+](=O)[O-])cc([N+](=O)[O-])c1 (stereo not given) | inactive: -1.18%
11 | CC(Cc1ccc(O)cc1)NCC(O)c1cc(O)cc(O)c1 (stereo not given) | inactive: 3.01%
12 | Cc1ccc2nc3c(c(C)c2c1)CC(C(Cl)Cl)S3 (stereo not given) | inactive: -2.58%
13 | O=[As](O)(c1ccc(O)cc1)c1ccccc1O | inactive: 8.78%
14 | C[As](=O)(O)c1cccc(C(=O)O)c1 | inactive: -3.35%
15 | O=[N+]([O-])c1ccc(-c2cc([N+](=O)[O-])c(O)c([N+](=O)[O-])c2)cc1 | inactive: -0.1%
16 | N#CCCN(C(=O)COC(=O)C(O)(c1ccccc1)c1ccccc1)c1ccc(F)cc1 | inactive: -3.65%
17 | CN(C(=O)Cc1ccccc1)[C@@H]1CC[C@]2(CCCO2)C[C@H]1N1CCCC1 | inactive: 2.71%
18 | CCOP1(=S)c2c(C)nn(CCC#N)c2N=C(c2ccc(F)cc2)N1C (stereo not given) | inactive: -5.98%
19 | CN(C)C(=O)c1cc([N+](=O)[O-])cc2c1-c1c(cc([N+](=O)[O-])cc1[N+](=O)[O-])C2=O | inactive: 5.69%
20 | O=[N+]([O-])c1ccc2c(c1)nnn2O | inactive: -2.78%
21 | CN(C(=O)Cc1ccc(Cl)c(Cl)c1)[C@H]1CC[C@@]2(CCCO2)C[C@@H]1N1CCCC1 | inactive: -1.96%
22 | NC(=O)Nc1ccc([As](=O)(O)O)cc1 | inactive: -0.09%
23 | O=C(O)COc1ccc([As](=O)(O)O)cc1[N+](=O)[O-] | inactive: 14.3%
24 | Nc1ccccc1[As](=O)(O)c1ccccc1 | inactive: 12.2%
25 | CCOP1(=S)c2c(C)nn(CCC#N)c2N=C(c2ccccc2F)N1C (stereo not given) | inactive: -6.15%

Row | SMILES | activation
26 | O=P(Nc1nccs1)(c1ccccc1)c1nc2ccccc2s1 (stereo not given) | inactive: 2.93%
27 | O=P(Nc1nccs1)(Oc1ccccc1)Oc1ccccc1 | inactive: 4.71%
28 | CS(=O)(=O)c1cc([N+](=O)[O-])c2no[n+]([O-])c2c1 | inactive: 2.58%
29 | COc1cc(C2NCCC3(OCCO3)C2(C)C)cc(OC)c1OC (stereo not given) | inactive: 0.64%
30 | CCOP(=O)(Nc1cccc2ccccc12)OCC | inactive: 5.84%
31 | Cc1ccc(NCCc2c([N+](=O)[O-])cc([N+](=O)[O-])cc2[N+](=O)[O-])cc1 | inactive: 3.63%
32 | Nc1cccc2c([As](=O)(O)O)cccc12 | inactive: 1.43%
33 | CCCOP(=S)(Nc1nc(N)cc(=O)[nH]1)OCCC | inactive: -0.68%
34 | C[C@H]1C(=O)O[C@@H]2CCN3CC=C(COC(=O)[C@](C)(O)[C@]1(C)O)[C@H]23 | inactive: 4.04%
35 | O=[As](O)(c1cccc(O)c1)c1cccc(O)c1 | inactive: 4.18%
36 | Cc1cccc(OCC(=O)OC2CN3CCC2CC3)c1 (stereo not given) | inactive: -14.5%
37 | O=C(OC1CN2CCC1CC2)c1ccc(Cl)cc1 (stereo not given) | inactive: -22.7%
38 | O=[As](O)(O)c1cccnc1 | inactive: 4.15%
39 | CS(=O)(=O)c1ccc(Cl)c(NC(=O)COC(=O)C(O)(c2ccccc2)c2ccccc2)c1 | inactive: 0.12%
40 | CN(C(=O)Cc1ccc(Cl)c(Cl)c1)[C@@H]1CCCC[C@H]1N1CCCC1 | inactive: 0.44%
41 | CC(C)/C=N\N=C(\N)N[N+](=O)[O-] | inactive: -1.01%
42 | CC1(CBr)Cn2c(nc3ccccc3c2=O)S1 (stereo not given) | inactive: -2.25%
43 | COc1ccccc1CNC(=O)COC(=O)C(O)(c1ccccc1)c1ccccc1 | inactive: -1.01%
44 | Clc1n[nH]nc1-c1nn[nH][15n]1 | inactive: -2.32%
45 | O=P1(N(CCCl)CCCl)NCCC(C(F)(F)F)O1 (stereo not given) | inactive: -2.2%
46 | CC(C)(C)C(=O)NC(Sc1ncccn1)C(Cl)(Cl)Cl (stereo not given) | inactive: 9.67%
47 | CCC1=CC2Cc3nc4ccc(Cl)cc4c(N)c3C(C1)C2 (stereo not given) | inactive: -13.5%
48 | O=P1(Nc2ccccn2)COc2ccccc2OC1 | inactive: 1.26%
49 | CCOP(=O)(NC(=NC(C)c1ccccc1)NC(C)c1ccccc1)OCC (stereo not given) | inactive: 4.29%
50 | CN(CCCl)Cc1cc(Cl)c(NC2=NCCN2)c(Cl)c1 | inactive: 4.39%

Row | SMILES | activation
51 | CCOP(=O)(Nc1ccc(C)cn1)OCC | inactive: -2.22%
52 | Nc1cccc([As](=O)(O)c2ccccc2)c1 | inactive: -2.75%
53 | NS(=O)(=O)c1cccc(NC(=O)COC(=O)C(O)(c2ccccc2)c2ccccc2)c1 | inactive: -7.64%
54 | O=P1(Nc2ccc(Br)cn2)COc2ccccc2OC1 | inactive: -0.29%
55 | Cc1ccc(OCC(=O)OC2CN3CCC2CC3)cc1 (stereo not given) | inactive: -24.5%
56 | O=[As](O)(c1cccs1)c1cccs1 | inactive: 2.91%
57 | Cc1ccc(S(=O)(=O)N(CCCN)CCCc2c(C)nc(N)[nH]c2=O)cc1 | inactive: 3.41%
58 | O=P1(Nc2ncccn2)COc2ccccc2OC1 | inactive: 0.12%
59 | O=C(/C=C/c1ccccc1)OC1CN2CCC1CC2 (stereo not given) | inactive: 0.97%
60 | CCCC1OP(=O)(Nc2ccccc2)OCC1CC (stereo not given) | inactive: 8.54%
61 | Cc1nn(-c2ccccc2)c2c1P(=O)(N1CCOCC1)N(C)C(c1ccccc1)=N2 (stereo not given) | inactive: 3.94%
62 | Cc1ccc(C(=O)OC2CN3CCC2CC3)cc1 (stereo not given) | inactive: -4.67%
63 | CC1CCC(C(C)C)C(OP(=O)(Nc2ccccn2)c2ccccc2)C1 (stereo not given) | inactive: -9.58%
64 | O=C(OC1CN2CCC1CC2)c1cccc(Cl)c1 (stereo not given) | inactive: -17.5%
65 | Nc1ccc([As](=O)(O)c2ccc([N+](=O)[O-])cc2)cc1 | inactive: -7.3%
66 | C(Cc1nn[nH]n1)Cc1nn[nH]n1 | inactive: 0.88%
67 | O=[As](O)(c1ccccc1)c1ccc(O)cc1 | inactive: -3.14%
68 | CC(=O)NC(SC(=S)N(C)C)C(Cl)(Cl)Cl (stereo not given) | inactive: -1.33%
69 | O=[N+]([O-])c1ncn(CCn2cnc([N+](=O)[O-])n2)n1 | inactive: 9.55%
70 | O=[N+]([O-])c1ccc(O)c(/C=N/Nc2ccc([N+](=O)[O-])cc2[N+](=O)[O-])c1 | inactive: -4.37%
71 | O=P(Nc1nc2ccccc2s1)(c1ccccc1)c1ccccc1 | inactive: -3.64%
72 | C[C@H]1OP(=O)(Oc2ccccc2)[C@H](O)[C@H](O)[C@H]1N=[N+]=[N-] (stereo not given in full) | inactive: -2.17%
73 | O=P(Nc1ccccn1)(c1ccc(Br)cc1)c1ccc(Br)cc1 | inactive: 1.58%
74 | Nc1ccc(CCCCOc2ccccc2)cc1 | inactive: 0.09%
75 | COc1ccc(N)c([N+](=O)[O-])c1[N+](=O)[O-] | inactive: 6.3%

Row | SMILES | activation
76 | c1nnnn1CCn1cnnn1 | inactive: 1.56%
77 | O=P(Nc1nccs1)(c1ccccc1)c1ccccc1 | inactive: 5.36%
78 | CC(C)C(=O)NC(Sc1ccccc1)C(Cl)(Cl)Cl (stereo not given) | inactive: 15.2%
79 | CC(=O)Nc1ccc([As](=O)(O)O)c(O)c1 | inactive: 0.75%
80 | CC(=O)Nc1ccc(Oc2c([N+](=O)[O-])cc([N+](=O)[O-])cc2[N+](=O)[O-])cc1 | inactive: 2.56%
81 | CCN(CC)CCOC(=O)C(O)(c1ccccc1)c1ccccc1 | inactive: -18.3%
82 | Cc1ccccc1CN(C)C(=O)COC(=O)C(O)(c1ccccc1)c1ccccc1 | inactive: 6.05%
83 | C[C@@H]1C=CCP(=O)(Oc2ccccc2)O1 (stereo not given in full) | inactive: -2.05%
84 | C[C@H]1OP(=O)(Oc2ccccc2)C[C@@H]2O[C@@H]21 (stereo not given in full) | inactive: -2.72%
85 | N#C/C(=C\c1ccc(N(CCBr)CCBr)cc1)C(N)=O | inactive: -3.21%
86 | CC(=O)c1ccc(N2CC2c2ccncc2)cc1 (stereo not given) | inactive: -3.58%
87 | CC1C(=O)OC2CCN3CC=C(COC(=O)C(C)(O)C1(C)O)C23 (stereo not given) | inactive: -3.68%
88 | COC(=O)C1(C)COP(=O)(NCc2ccccc2)OC1 (stereo not given) | inactive: -4.5%
89 | CC(C)(C)C(=O)NC(Sc1ccccc1)C(Cl)(Cl)Cl (stereo not given) | inactive: 1.97%
90 | CCc1cc(O)c([N+](=O)[O-])c(C)c1[N+](=O)[O-] | inactive: 4.7%
91 | O=P1(Nc2nc3ccc(Cl)cc3s2)COc2ccccc2O1 (stereo not given) | inactive: -3.02%
92 | CCOc1ccc(C2=NCC(CBr)S2)cc1 (stereo not given) | inactive: -2.54%
93 | Cc1ccccc1OP(=O)(Nc1ccccn1)Oc1ccccc1C | inactive: -14.4%
94 | CC(NC(=O)COC(=O)C(O)(c1ccccc1)c1ccccc1)c1ccccc1 (stereo not given) | inactive: -15.6%
95 | CN(C)C(=O)Oc1noc2ccccc12 | inactive: -2.02%
96 | O=c1c2cc([N+](=O)[O-])ccc2[nH]c2c([N+](=O)[O-])cc([N+](=O)[O-])cc12 | inactive: -14.4%
97 | CCN(C(=O)COC(=O)C(O)(c1ccccc1)c1ccccc1)c1c(N)n(Cc2ccccc2)c(=O)[nH]c1=O | inactive: -0.86%
98 | O=C(OC1CN2CCC1CC2)c1ccccc1 (stereo not given) | inactive: -16.6%
99 | Clc1ccc(N2CCN(Cc3c[nH]c4ncccc34)CC2)cc1 | inactive: -3.83%
100 | CCC(=O)N1C2C3N(C(=O)CC)C1C1N(C(=O)CC)C(C(N1C(=O)CC)N3C(=O)CC)N2C(=O)CC | inactive: -6.22%
